# Source: publication PMC8237303 (Heliyon, 2021)
# Sequences of proteins named here, by UniProt entry; tags and fusion partners are left off.
# UniProt P25929, whole entry: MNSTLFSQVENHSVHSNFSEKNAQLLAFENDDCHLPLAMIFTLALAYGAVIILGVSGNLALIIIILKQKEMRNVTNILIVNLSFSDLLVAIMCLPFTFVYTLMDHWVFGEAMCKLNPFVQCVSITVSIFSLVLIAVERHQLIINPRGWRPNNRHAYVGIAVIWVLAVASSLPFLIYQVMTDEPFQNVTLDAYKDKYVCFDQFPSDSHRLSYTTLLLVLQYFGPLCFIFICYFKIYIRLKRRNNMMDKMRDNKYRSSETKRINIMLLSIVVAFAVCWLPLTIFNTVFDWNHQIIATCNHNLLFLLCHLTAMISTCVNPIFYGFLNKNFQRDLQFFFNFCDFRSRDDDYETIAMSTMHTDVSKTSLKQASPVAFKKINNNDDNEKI
# UniProt P30411, whole entry: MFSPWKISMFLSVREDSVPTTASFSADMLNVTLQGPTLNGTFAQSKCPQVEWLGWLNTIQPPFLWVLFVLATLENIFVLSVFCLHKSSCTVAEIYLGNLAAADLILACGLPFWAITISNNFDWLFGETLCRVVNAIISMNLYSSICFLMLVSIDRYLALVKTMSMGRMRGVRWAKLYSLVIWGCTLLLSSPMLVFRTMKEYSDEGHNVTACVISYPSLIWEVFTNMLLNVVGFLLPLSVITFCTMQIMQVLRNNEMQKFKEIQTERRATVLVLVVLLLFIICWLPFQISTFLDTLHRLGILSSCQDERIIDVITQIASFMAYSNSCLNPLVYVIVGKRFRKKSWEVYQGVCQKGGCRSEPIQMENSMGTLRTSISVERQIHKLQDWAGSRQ
# Key:
# [1] = target: Neuropeptide Y1 receptor (Human) (Homo sapiens, UniProt P25929); experiment: [125I]-Peptide YY; type: binding; conditions: Human receptor (Non-recombinant)
# [2] = target: Bradykinin B2 receptor (Human) (Homo sapiens, UniProt P30411); experiment: [3H]-Bradykinin binding assay; conditions: Human recombinant
# [3] = target: Angiotensin AT1 receptor (Human) (Homo sapiens, UniProt P30556); experiment: [125I]-Angiotensin II; type: binding; conditions: Human recombinant
# [4] = target: T1, Angiotensin AT2 receptor (Human) (Homo sapiens, UniProt P50052); experiment: [125I]-CGP-42112A binding assay; conditions: Human recombinant
# T1 sequence (P50052 1-363): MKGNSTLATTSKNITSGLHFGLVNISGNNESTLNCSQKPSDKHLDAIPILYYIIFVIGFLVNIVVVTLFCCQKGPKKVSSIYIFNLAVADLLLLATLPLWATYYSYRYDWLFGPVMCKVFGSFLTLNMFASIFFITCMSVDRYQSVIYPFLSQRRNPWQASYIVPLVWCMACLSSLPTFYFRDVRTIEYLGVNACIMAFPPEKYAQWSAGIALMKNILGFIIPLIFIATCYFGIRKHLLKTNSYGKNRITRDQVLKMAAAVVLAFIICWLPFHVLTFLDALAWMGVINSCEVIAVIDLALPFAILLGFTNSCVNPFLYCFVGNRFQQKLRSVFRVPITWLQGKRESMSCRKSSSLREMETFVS
# [5] = target: T2, Bradykinin B1 receptor (Human) (Homo sapiens, UniProt P46663); experiment: [3H]-Kallidin; type: binding; conditions: Human recombinant
# T2 sequence (P46663 1-353): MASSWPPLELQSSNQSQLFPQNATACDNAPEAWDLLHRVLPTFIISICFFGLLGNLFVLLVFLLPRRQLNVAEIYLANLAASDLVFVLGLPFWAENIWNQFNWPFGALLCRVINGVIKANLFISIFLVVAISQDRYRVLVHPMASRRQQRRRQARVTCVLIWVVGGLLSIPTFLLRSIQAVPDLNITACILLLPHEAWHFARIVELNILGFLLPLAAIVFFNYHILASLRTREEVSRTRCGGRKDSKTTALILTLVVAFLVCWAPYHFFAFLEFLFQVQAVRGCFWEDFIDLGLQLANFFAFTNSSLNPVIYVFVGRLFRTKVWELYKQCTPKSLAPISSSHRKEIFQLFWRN
substance,measurement,setting,value
"[Leu 31, Pro 34]-Neuropeptide Y porcine",Inhibition by a positive substance (%),[1],99.75%
HOE140,Inhibition by a positive substance (%),[2],94.95%
Angiotensin II human,Inhibition by a positive control substance (%),[3],100%
same,Inhibition by a positive substance (%),[4],100%
Lys-(des-Arg 9，Leu 8)-Bradykinin trifluoroacetate salt,Inhibition by a positive substance (%),[5],100%
